# According to paper PMC9867526, “Drug Metabolism of Hepatocyte-like Organoids and Their Applicability in In Vitro Toxicity Testing” (Molecules, 2023):
# Tested on: HL-ICOs
# Assay: Cytotoxicity (CellTiter-Glo ATP viability) in hepatocyte-like intrahepatic cholangiocyte organoids, 48 h exposure
# Type: cell-based
# Conditions: Homo sapiens, HL-ICOs differentiation day 12, ICO donor in fourth HL-ICO column, 48 h single dose, cell viability (ATP)
# Description: The cell suspension was cultured in MatrigelTM (Corning, New York, NY, USA) droplets in expansion medium (EM) until organoids were formed, as previously described. EM consisted of Advanced DMEM/F12 (Life Technologies) supplemented with 1% (v/v) penicillin-streptomycin (Life Technologies), 1% (v/v) GlutaMax (Life Technologies), 10 mM HEPES (4-(2-hydroxyethyl)-1-piperazineethanesulfonic acid, Life Technologies), 2% (v/v) B27 supplement without vitamin A (Invitrogen, Carlsbad, CA, USA), 1% (v/v) N2 supplement (Invitrogen), 10 mM nicotinamide (Sigma-Aldrich, St Louis, MO, USA), 1.25 mM N-acetylcysteine (Sigma-Aldrich), 10% (v/v) R-spondin-1 conditioned medium (the Rspo1-Fc-expressing cell line was a kind gift from Calvin J. Kuo), 10 μM forskolin (Sigma-Aldrich), 5 μM A83-01 (transforming growth factor beta inhibitor; Tocris Bioscience, Bristol, UK), 50 ng/mL EGF (Invitrogen), 25 ng/mL HGF (Peprotech, Rocky Hill, NJ, USA), 0.1 μg/mL FGF10 (Peprotech) and 10 nM recombinant human ([…])-gastrin I (Sigma-Aldrich). Medium was changed twice a week. Passaging occurred every 7-10 days at ratios ranging between 1:2 and 1:4. All cultures were kept in a humidified atmosphere of 95% air and 5% CO2 at 37 °C. […] The viability of exposed cells was determined by cellular ATP levels using the CellTiter-Glo Luminescent Cell Viability Assay (Promega, Madison, WI, USA). […]
smiles,measurement,value
O=C(O)Cc1ccccc1Nc1c(Cl)cccc1Cl [Diclofenac],EC50,476 µM
